Molecular target: human phosphatidylserine synthase 1 (human) (UniProt P48651)
Experiment: cryo-EM structure; purified PSS1 in detergent micelles (GDN); apo, Ca2+-bound and Ca2+/L-serine-bound states; homodimer

## human phosphatidylserine synthase 1 (from UniProt P48651 1-473) (enzyme)
  stoichiometry N: 2
